Reference: US20170037028A1 (BAYER PHARMA AKTIENGESELLSCHAFT, priority 2013, published 2017)

Protein sequences, listed by entry. Tags and fused reporters are not part of them.
UniProt P11166, whole entry: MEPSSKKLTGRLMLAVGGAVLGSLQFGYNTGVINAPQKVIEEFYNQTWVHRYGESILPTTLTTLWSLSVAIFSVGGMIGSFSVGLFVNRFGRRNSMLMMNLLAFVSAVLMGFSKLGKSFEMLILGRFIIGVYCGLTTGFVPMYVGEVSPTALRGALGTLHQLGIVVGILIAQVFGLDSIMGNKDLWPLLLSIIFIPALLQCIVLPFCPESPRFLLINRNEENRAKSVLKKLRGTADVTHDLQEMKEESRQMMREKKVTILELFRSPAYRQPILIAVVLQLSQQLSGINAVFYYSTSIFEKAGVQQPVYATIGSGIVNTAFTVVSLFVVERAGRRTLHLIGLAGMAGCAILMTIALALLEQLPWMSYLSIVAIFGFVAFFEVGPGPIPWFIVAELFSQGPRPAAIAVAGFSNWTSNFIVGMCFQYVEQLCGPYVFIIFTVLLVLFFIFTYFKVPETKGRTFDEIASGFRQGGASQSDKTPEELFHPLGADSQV

Target: GLUT1 (Homo sapiens, UniProt P11166)
Test: Indirect measurement of GLUT1 activity by quantification of intracellular ATP levels (glucose induced ATP increase)
Assay type: cell-based
Details: read-out: IC50 regarding glucose induced ATP increase (GLUT1 inhibition); DLD1 cells; 0.1 mM glucose, 1 μM Rotenone, 15 min; CellTiter-Glo ATP readout; IC50 values standardized to cytochalasin B IC50 values

| IC50 [µM] | Structure (SMILES) |
| --- | --- |
| 0.394 | Cc1ccc2nc(C)cc(C(=O)Nc3c(C)nn(Cc4ccc(Cl)cc4Cl)c3C)c2c1 |
| 3.93 | Cc1ccc2nc(C)cc(C(=O)Nc3c(C)nn(Cc4ccc5c(c4)C(C)(C)CCC5(C)C)c3C)c2c1 |
